Apparent affinities of Ab-14 variants for a coronavirus HR2 peptide

Binding partner: SARS-CoV-2 spike HR2 peptide, sequence PDVDLGDISGINAS.

Parent scFv Ab-14: VH joined to VL by three GGGGS repeats. Changes lie in the heavy chain CDRs alone.
VH: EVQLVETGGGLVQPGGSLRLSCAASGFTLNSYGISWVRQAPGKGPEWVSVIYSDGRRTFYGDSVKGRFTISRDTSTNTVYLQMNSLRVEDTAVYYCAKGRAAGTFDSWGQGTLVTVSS
VL: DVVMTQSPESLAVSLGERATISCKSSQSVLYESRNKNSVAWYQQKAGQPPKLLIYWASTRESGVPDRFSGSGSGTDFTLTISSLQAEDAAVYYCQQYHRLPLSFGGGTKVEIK

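The parent was found by panning a naive human phage display library on the peptide. These sequences belong to a second round, designed from the earlier measurements on random variants of the parent. Their group label is 14H_En_Gen (En: ensemble of fine-tuned language models; Gen: genetic algorithm). AlphaSeq pools MATa yeast showing the antibodies with MATalpha yeast showing the peptide. Pairs that bind mate more often; barcode pairs of the diploids are counted by sequencing. Read counts were normalised to the haploid input and turned into Kd by a linear fit to BCL2-family pairs of known affinity, for each replicate. There are six technical replicates.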

Each variant is given by its three heavy chain CDRs, as the data file delimits them; those of the parent are GFTLNSYGIS, VIYSDGRRTFYGDSVK, GRAAGTFDS. Numbers give log10(Kd / nM), so 0 is 1 nM and 3 is 1 µM. Smaller is tighter. The mean shown is taken over the replicates in which the pair was detected. A pair that was not seen in that replicate is written "n.d."; this usually means weak binding, but a binder can also be missed. The authors averaged sequences with at least three values out of six and counted those with two or fewer as poor binders. A sequence measured in both rounds can read differently, since the two assays cover different ranges. The parent sequence was in this pool as ten entries: three were never detected, three once, and four in most replicates, with averages from 0.34 to 2.37. Nonspecific signal, from three strains lacking the peptide, appeared in 1% of pairings of all heavy chain designs, centred on 2.08 (5% of these signals below 0.84); values are not corrected for it. Also given: how often the same scFv was detected with the empty control strains, with their mean in brackets.

CDR-H1 | CDR-H2 | CDR-H3 | replicates, log10 nM | mean log10 Kd (nM) | signal with controls
GFDLNEYGIS | VIYADGVRTSYADDVK | GNQAGTFDV | -0.36 -0.29 -0.49 -0.53 -0.46 -0.15 | -0.38 | 0/18
GFDLNEYGIS | VIYADGSRTAYADSVK | GTNAGTFDQ | -0.04 0.02 -0.58 -0.65 -0.43 -0.07 | -0.29 | 0/18
GFDLNEYGIS | VIYADGMRKAYADSVK | GEVAGTFDV | -0.55 -0.28 -0.21 -0.07 -0.68 -0.08 | -0.31 | 1/18 (1.28)
GFDLNEYGIS | VIYADGVRQAYADSVK | GNNAGTFDV | 0.06 0.36 0.18 0.69 0.56 0.63 | 0.41 | 0/18
GFDLEDYGIS | VIYADGMRTAYADSVK | GEVAGTFDV | -0.18 -0.22 -0.49 -0.47 -0.18 0.00 | -0.26 | 1/18 (1.45)
GFDLNEYGIS | VIYADGVRKAYADSVK | GEVAGTFDT | -0.76 -1.00 -0.74 -1.31 -1.13 -1.25 | -1.03 | 1/18 (0.68)
GFDLDEYGIS | VIYADGMRTAYADSVK | GNVAGTFDM | -0.95 -1.26 -1.33 -1.32 -1.14 -0.83 | -1.14 | 0/18
GFDLNEYGIS | VIYADGMRTAYADDVK | GNIAGTFDI | -0.55 -0.97 -0.82 -1.16 -1.35 -0.67 | -0.92 | 0/18
GFDLNEYGIS | VIYADGVRTAYADSVK | GEHAGTFDV | 0.04 -0.22 -0.58 -0.15 -0.48 -0.08 | -0.25 | 1/18 (2.34)
GFDLNEYGIS | VIYADGMRKAYADDVK | GENAGTFDQ | 1.29 0.88 0.76 0.85 1.88 0.09 | 0.96 | 0/18
GFDLNEYGIS | VIYADGRRTAYADSVK | GENAGTFDA | 0.58 0.08 -0.21 0.21 0.32 -0.04 | 0.16 | 0/18
GFDLNEYGIS | VIYADGMRTAYSDDVK | GNNAGTFDQ | 0.02 -0.69 -0.37 -0.48 -0.53 -0.68 | -0.46 | 0/18
GFDLNEYGIS | VIYADGLRTAYADDVK | GTNAGTFDV | 0.06 -0.96 -0.64 -0.61 -1.04 -0.06 | -0.54 | 0/18
GFDLNEYGIS | VIYADGQRTAYADSVK | GQNAGTFDT | 0.30 -0.30 -0.52 -0.06 -0.79 0.06 | -0.22 | 0/18
GFDLNEYGIS | VIYADGKRKAYADDVK | GNQAGTFDV | -0.37 -0.34 -0.22 -0.67 -0.45 -0.48 | -0.42 | 0/18
GFDLNEYGIS | VIYADGSRTFYADSVK | GEVAGTFDV | -0.28 -0.29 -0.40 -0.48 -0.51 -0.26 | -0.37 | 1/18 (4.00)
GFDLDEYGIS | VIYADGMRTAYSDDVK | GNVAGTFDL | -0.85 -1.92 -1.09 -1.58 -1.87 -0.87 | -1.36 | 0/18
GFDLDEYGIS | VIYADGKRTAYSDSVK | GNTAGTFDV | n.d. n.d. n.d. n.d. n.d. n.d. | n.d. | 0/18
GFDLNEYGIS | VIYADGVRKAYADSVK | GEVAGTFDL | -0.53 -0.54 -0.92 -0.85 -0.93 -0.75 | -0.75 | 0/18
GFDLNEYGIS | VIYADGMRTFYADSVK | GNNAGTFDL | 1.82 n.d. n.d. n.d. 0.20 n.d. | 1.01 | 1/18 (1.72)
GFDLNEYGIS | VIYADGRRTAYTDSVK | GENAGTFDI | 0.58 0.82 0.42 0.86 1.25 1.53 | 0.91 | 0/18
GFDLDEYGIS | VIYADGQRTAYADSVK | GNNAGTFDM | -0.04 -0.15 -0.19 -0.31 0.50 0.19 | 0.00 | 0/18
GFDLNEYGIS | VIYADGRRTAYSDSVK | GNVAGTFDL | -0.12 -0.60 -0.76 -0.46 -0.44 -0.58 | -0.49 | 0/18
GFDLNEYGIS | VIYADGKRTAYADNVK | GNTAGTFDV | -0.40 -0.40 0.22 -0.69 -1.03 0.53 | -0.29 | 0/18
GFDLDEYGIS | VIYADGMRTAYADSVK | GQTAGTFDV | -0.81 -1.09 -0.83 -1.14 -1.23 -0.53 | -0.94 | 0/18
GFDLNEYGIS | VIYADGMRTAYVDKVK | GENAGTFDV | -0.88 -1.22 -0.90 -1.34 -0.87 -0.47 | -0.95 | 0/18
GFDLNEYGIS | VIYADGSRTYYADSVK | GNVAGTFDV | -0.32 -0.35 -0.79 -0.65 -0.48 -0.59 | -0.53 | 2/18 (2.15)
GFDLNEYGIS | VIYADGMRTAYTDSVK | GNQAGTFDI | -0.01 -0.45 -0.57 -0.88 -0.96 -0.57 | -0.57 | 0/18
GFDLNEYGIS | VIYADGVRTAYADDVK | GNVAGTFDL | -0.07 -0.54 -0.73 -0.73 -0.44 -0.53 | -0.51 | 0/18
GFDLEEYGIS | VIYADGKRTYYADSVK | GNVAGTFDV | 0.20 -0.60 -0.31 -0.20 -0.19 -0.01 | -0.19 | 0/18
GFDLNEYGIS | VIYADGRRTAYADKVK | GNTAGTFDV | -0.63 -0.62 -0.43 -0.67 -0.91 -0.18 | -0.57 | 0/18
GFDLNEYGIS | VIYADGMRTAYTDNVK | GNVAGTFDL | -0.45 -0.47 -0.63 -0.70 -0.80 -0.24 | -0.55 | 0/18
GFDLNEYGIS | VIYADGMRTFYSDSVK | GENAGTFDI | 0.46 0.26 0.31 0.23 0.76 0.53 | 0.43 | 1/18 (2.82)
GFDLNEYGIS | VIYADGMRTAYADDVK | GGNAGTFDM | 0.11 0.32 0.54 -0.21 0.41 0.08 | 0.21 | 0/18
GFDLNEYGIS | VIYADGKRTAYSDSVK | GNVAGTFDQ | 0.10 -0.24 -0.57 -0.40 -0.47 -0.19 | -0.30 | 0/18
GFDLDEYGIS | VIYADGQRTAYTDSVK | GNVAGTFDV | 0.67 0.72 0.20 0.49 0.50 0.85 | 0.57 | 1/18 (1.97)
GFDLNEYGIS | VIYADGMRTAYADDVK | GQNAGTFDV | 0.81 0.59 0.11 0.62 0.34 0.79 | 0.54 | 1/18 (2.44)
GFDLNEYGIS | VIYADGKRTYYADSVK | GGNAGTFDV | -0.49 -0.28 -0.62 -0.73 -0.47 -0.52 | -0.52 | 1/18 (1.99)
GFDLNEYGIS | VIYADGQRTAYADSVK | GGNAGTFDT | -0.60 -0.79 -0.39 -0.86 -0.83 -0.36 | -0.64 | 0/18
GFDLDEYGIS | VIYADGMRTAYVDSVK | GNVAGTFDQ | -0.41 -0.67 -0.59 -0.26 -0.03 -0.55 | -0.42 | 0/18
GFDLNEYGIS | VIYADGMRTAYVDSVK | GNTAGTFDQ | 1.42 0.91 0.07 -0.50 -0.35 0.08 | 0.27 | 0/18
GFDLNEYGIS | VIYADGRRTAYADSVK | GKNAGTFDV | -0.47 -0.36 -0.60 -0.58 -0.80 -0.49 | -0.55 | 0/18
GFDLNEYGIS | VIYADGMRTAYSDNVK | GNNAGTFDV | -0.51 -0.40 -0.44 -1.22 0.17 -0.82 | -0.54 | 0/18

Excerpt, the first 6 entries:

CDR-H1 | CDR-H2 | CDR-H3 | replicates, log10 nM | mean log10 Kd (nM) | signal with controls
GFDLNEYGIS | VIYADGVRTSYADDVK | GNQAGTFDV | -0.36 -0.29 -0.49 -0.53 -0.46 -0.15 | -0.38 | 0/18
GFDLNEYGIS | VIYADGSRTAYADSVK | GTNAGTFDQ | -0.04 0.02 -0.58 -0.65 -0.43 -0.07 | -0.29 | 0/18
GFDLNEYGIS | VIYADGMRKAYADSVK | GEVAGTFDV | -0.55 -0.28 -0.21 -0.07 -0.68 -0.08 | -0.31 | 1/18 (1.28)
GFDLNEYGIS | VIYADGVRQAYADSVK | GNNAGTFDV | 0.06 0.36 0.18 0.69 0.56 0.63 | 0.41 | 0/18
GFDLEDYGIS | VIYADGMRTAYADSVK | GEVAGTFDV | -0.18 -0.22 -0.49 -0.47 -0.18 0.00 | -0.26 | 1/18 (1.45)
GFDLNEYGIS | VIYADGVRKAYADSVK | GEVAGTFDT | -0.76 -1.00 -0.74 -1.31 -1.13 -1.25 | -1.03 | 1/18 (0.68)

Reference: Li et al. 2023, doi:10.1038/s41467-023-39022-2. File: FLAb, binding data.